Melting point values, as collected for the OPERA models

Values as listed in the OPERA 2.9 repository of K. Mansouri.

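OPERA's authors assembled the values from existing databases and did not measure them anew. A listed value is a point estimate from one report or more. Conditions of the individual experiments are not part of the data. A value may pool stereoisomers or salt forms, and the file does not say which form was measured. Some entries may be limits or estimates that an upstream database listed as plain numbers.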

Melting points are in °C.

{"smiles": "Cc1ccc2nc(C)c(C)nc2c1", "mp (°C)": "92.5"}
{"smiles": "CC(C)CNC(N)=S", "mp (°C)": "100"}
{"smiles": "COc1ccc(S(=O)(=O)NCC(=O)O)cc1OC", "mp (°C)": "174"}
{"smiles": "NNC(=O)C(=O)NCc1ccco1", "mp (°C)": "159"}
{"smiles": "CC(=O)OCC(=O)[C@@]1(O)[C@H](O)C[C@H]2[C@@H]3CCC4=CC(=O)C=C[C@]4(C)C3=CC[C@@]21C", "mp (°C)": "203.6"}
{"smiles": "Nc1nnc(SCc2ccccc2)s1", "mp (°C)": "160"}
{"smiles": "COc1ccc(-c2n[nH]c(=S)[nH]c2=O)cc1", "mp (°C)": "285"}
{"smiles": "Cc1cc(=O)nc(NN)[nH]1", "mp (°C)": "214"}
{"smiles": "CC(C)(C)c1cc2c(O)c(c1)Cc1cc(C(C)(C)C)cc(c1O)Cc1cc(C(C)(C)C)cc(c1O)Cc1cc(C(C)(C)C)cc(c1O)C2", "mp (°C)": "341.5"}
{"smiles": "COc1ccc(CCC(=O)O)cc1F", "mp (°C)": "112"}
{"smiles": "O=C(CCl)NCc1ccccc1F", "mp (°C)": "80"}
{"smiles": "CC(CC(=O)O)n1nnc2ccccc21", "stereo": "centres undefined", "mp (°C)": "150"}
{"smiles": "Nc1cc2c(cc1Cl)OCO2", "mp (°C)": "91"}
{"smiles": "COc1ccc(C(=O)Nc2ccccc2)cc1[N+](=O)[O-]", "mp (°C)": "161"}
{"smiles": "CC(Oc1ccc2c(c1)CCC2)C(=O)O", "stereo": "centres undefined", "mp (°C)": "104"}
{"smiles": "O=C(O)c1cccn1Cc1ccccc1", "mp (°C)": "125"}
{"smiles": "C=C/C=C/CC", "mp (°C)": "-102"}
{"smiles": "FC(F)(F)C(F)(F)C(F)(F)C(F)(F)C(F)(F)C(F)(F)CC[Si](Cl)(Cl)Cl", "mp (°C)": "-21"}
{"smiles": "O=C(O)c1ccccc1N1CCCC1=O", "mp (°C)": "198"}
{"smiles": "NNC(=O)CCN1CCCC1", "mp (°C)": "138"}
{"smiles": "O=C(O)CCCNc1ccc([N+](=O)[O-])cc1", "mp (°C)": "159"}
{"smiles": "CC(C)NC(=O)c1ccccc1N", "mp (°C)": "149"}
{"smiles": "O=C(O)c1nn(-c2ccccc2)c2c1CCC2", "mp (°C)": "180"}
{"smiles": "NC(=O)c1ccc(F)c(N)c1", "mp (°C)": "138"}
{"smiles": "O=C(O)c1sccc1-c1ccccc1", "mp (°C)": "207"}
{"smiles": "O=C(O)c1ccc2noc(-c3ccccc3)c2c1", "mp (°C)": "243"}
{"smiles": "CC(O)C(=O)NCCO", "stereo": "centres undefined", "mp (°C)": "-53"}
{"smiles": "CC(=O)Nc1ccc(S(=O)(=O)N(C)CC(=O)O)cc1", "mp (°C)": "226"}
{"smiles": "C/C=C(/C)C(=O)O[C@@H]1CC(C)(C)C[C@H]2C3=CC[C@@H]4[C@@]5(C)CCC(=O)C(C)(C)[C@@H]5CC[C@@]4(C)[C@]3(C)CC[C@@]12C(=O)O", "mp (°C)": "297"}
{"smiles": "Cc1ccc(Cl)cc1NC(=O)CC#N", "mp (°C)": "191"}
{"smiles": "COc1ccccc1C(=O)CC#N", "mp (°C)": "73"}
{"smiles": "CNNCc1ccccc1", "mp (°C)": "60"}
{"smiles": "CC(C)(C)OC(=O)NC1(CN)CCCCCC1", "mp (°C)": "78"}
{"smiles": "O=C(O)c1ccccc1C(=O)N1CCCCC1", "mp (°C)": "110"}
{"smiles": "O=C1NC(=O)C2(CCCc3sccc32)N1", "stereo": "centres undefined", "mp (°C)": "268"}
{"smiles": "O=C(O)c1cccc(S(=O)(=O)N2CCCCC2)c1", "mp (°C)": "179"}
{"smiles": "CC(CCO)CCO", "mp (°C)": "-10"}
{"smiles": "O=C(O)COc1ccc(Br)cc1Cl", "mp (°C)": "147"}
{"smiles": "O=C(O)c1ccc2[nH]c(=O)c(=O)[nH]c2c1", "mp (°C)": "251"}

The last 5 entries again:

structure (SMILES)	mp (°C)
O=C1NC(=O)C2(CCCc3sccc32)N1 (centres undefined)	268
O=C(O)c1cccc(S(=O)(=O)N2CCCCC2)c1	179
CC(CCO)CCO	-10
O=C(O)COc1ccc(Br)cc1Cl	147
O=C(O)c1ccc2[nH]c(=O)c(=O)[nH]c2c1	251